Source: patent publication US7687664B2, “Carboxylic acid derivative, a salt thereof or an ester of them, and medicament comprising it” (Eisai R&D Management Co., Ltd., priority 2001, dated 2010)

Chains of the proteins cited; added tags and fusions are not shown. Lines headed by an entry give the natural chain unless they say otherwise; changes in a name come on top. Residues count along the entry.
UniProt P37231, 202-503 limits assumed: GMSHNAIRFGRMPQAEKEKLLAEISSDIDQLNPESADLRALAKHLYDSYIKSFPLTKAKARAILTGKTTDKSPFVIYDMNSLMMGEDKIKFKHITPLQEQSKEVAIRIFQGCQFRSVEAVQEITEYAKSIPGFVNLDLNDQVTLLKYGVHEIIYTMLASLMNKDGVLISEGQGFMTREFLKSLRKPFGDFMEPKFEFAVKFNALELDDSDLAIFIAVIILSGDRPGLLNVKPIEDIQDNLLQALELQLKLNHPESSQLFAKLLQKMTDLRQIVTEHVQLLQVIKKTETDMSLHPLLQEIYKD
UniProt Q03181, 138-440 limits assumed: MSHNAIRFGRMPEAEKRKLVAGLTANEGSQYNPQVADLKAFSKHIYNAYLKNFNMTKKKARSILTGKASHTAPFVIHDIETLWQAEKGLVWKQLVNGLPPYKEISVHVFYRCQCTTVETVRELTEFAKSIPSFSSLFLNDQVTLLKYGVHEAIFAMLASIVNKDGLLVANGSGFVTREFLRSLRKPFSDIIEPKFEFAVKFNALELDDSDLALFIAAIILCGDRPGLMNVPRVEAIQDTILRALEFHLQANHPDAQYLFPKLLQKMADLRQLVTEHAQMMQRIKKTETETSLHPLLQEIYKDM
UniProt Q07869, 167-468 limits assumed: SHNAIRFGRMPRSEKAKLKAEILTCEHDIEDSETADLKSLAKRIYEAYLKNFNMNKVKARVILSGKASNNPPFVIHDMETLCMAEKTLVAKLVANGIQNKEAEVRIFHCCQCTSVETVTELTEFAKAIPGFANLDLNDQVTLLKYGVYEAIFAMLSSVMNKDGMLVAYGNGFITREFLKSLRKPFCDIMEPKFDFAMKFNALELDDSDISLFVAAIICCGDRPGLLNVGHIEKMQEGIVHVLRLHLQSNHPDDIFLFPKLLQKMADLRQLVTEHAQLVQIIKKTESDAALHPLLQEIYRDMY

Legend:
Test in all cases: Transcriptional activity, GAL4-PPAR LBD chimera / PLAP reporter in CV-1 cells
human PPAR γ = human PPAR γ (Homo sapiens, UniProt P37231); conditions: read-out: Transcriptional activity, EC50 PPAR γ, GAL4-PPARγ LBD, PLAP activity 24 hours after addition
Description: (§1) A GAL4-PPAR LBD chimera expression vector was constructed by ligating human PPAR 167-468 (PPAR α), 138-440 (NUC-1) and 174-475 (PPARγ) amino acid regions (LBD: Ligand Binding Domain) to a yeast transcriptional factor GAL4 1-147 amino acid region. As the reporter gene, PLAP (Placental Alkaline Phosphatase) was used, and this was ligated downstream of a TK promoter containing a 5-copy GAL4 DNA binding element to construct a vector. As host cells, CV-1 (ATCC CCL-70) was used. That is, CV-1 cells were spread at a density of 5×10^5 cells on a 35-mm dish and cultured in 10% FCS/DMEM for 24 hours, and using FuGENE 6 transfection reagent, the cells were co-transfected with the GAL4-PPAR LBD expression vector and GAL4 DBD-TK-PLAP expression vector. 24 hours after this transfection, the cells were spread again on a 96-well plate at a density of 1×10^4/well and further cultured for 24 hours. After 24 hours, the medium was exchanged with DMEM containing 10% FCS, which was previously treated at 65° C. for inactivating intrinsic alkaline phosphatase, and a test compound was added at an arbitrary concentration. The transcriptional activity was determined in terms of PLAP activity secreted 24 hours after addition of the compound, to calculate EC50.
(§2) The PLAP activity was determined after adding 50 μl assay buffer and 50 μl chemoluminescence substrate to 10 μl culture supernatant and incubating the mixture at room temperature for 1 hour. In this way, transcription activities with respect to PPARα, PPARβ(δ) and PPARγ could be determined.

[1] = biological target: human PPAR β (NUC-1, PPARβ(δ)) (Homo sapiens, UniProt Q03181); conditions: read-out: Transcriptional activity, EC50 PPAR β, GAL4-PPARβ(δ) (NUC-1) LBD, PLAP activity 24 hours after addition
Description: as §1, §2

human PPAR α = human PPAR α (Homo sapiens, UniProt Q07869); conditions: read-out: Transcriptional activity, EC50 PPAR α, GAL4-PPARα LBD, PLAP activity 24 hours after addition
Description: as §1, §2

In the case of `COc1ccc(-c2cccc(C(=O)O)c2)cc1CNC(=O)c1sc(-c2ccc(Cl)cc2)nc1C`, the EC50 (human PPAR γ) is reported as 711 nM, the EC50 [1] is reported as 176 nM and the EC50 (human PPAR α) is reported as under 0.1 nM.
